{
  "source": "patent US9822414B2",
  "about": "“In vitro method for predicting in vivo genotoxicity of chemical compounds” (priority 2011, dated 2017)",
  "key": {"HepG2 cell [1]": {"tested_on": "HepG2 cell", "test": "Class prediction of in vivo genotoxicity by the method of the invention (Ames stratification plus three-gene expression in HepG2)", "settings": "62 compounds, three replicates, HepG2 24 h"}, "Salmonella typhimurium": {"tested_on": "Salmonella typhimurium", "settings": "cited from earlier work"}, "PWWP2B": {"tested_on": "PWWP2B", "test": "Gene expression of PWWP2B in HepG2 cells exposed to compound (microarray, log2 treatment:control ratio)", "format": "cell-based, human"}, "HepG2 cell [2]": {"tested_on": "HepG2 cell"}},
  "note": "Values joined by “and” are separate entries in the source; they are usually repeats but may differ in a detail not shown here. Identical values can stand only once.",
  "data": [
    {"smiles": "CCN(CC)N=O", "note": "[DEN]", "values": [
      {"measurement": "Prediction (class prediction results using the method of the invention)", "setting": "HepG2 cell [1]", "value": "GTX"},
      {"measurement": "Ames", "setting": "Salmonella typhimurium", "value": "+"},
      {"measurement": "Log2 treatment: control ratio PWWP2B", "setting": "PWWP2B", "value": "0.087 and 0.095 and 0.056"},
      {"measurement": "At least ⅔ genes +?", "setting": "HepG2 cell [2]", "value": "GTX"},
      {"measurement": "Average result over three measurements", "setting": "HepG2 cell [2]", "value": "GTX"}
    ]}
  ]
}
